Measured values reported in ChEMBL document CHEMBL4321862, “Application of Bivalent Bioisostere Concept on Design and Discovery of Potent Opioid Receptor Modulators” (J Med Chem, 2019).
Activity calls are given as the source filed them. The calls are words filed in the database; no cut-off is given here.

Sequences of proteins named here, by UniProt entry; tags and fusion partners are left off.
UniProt P42866, whole entry: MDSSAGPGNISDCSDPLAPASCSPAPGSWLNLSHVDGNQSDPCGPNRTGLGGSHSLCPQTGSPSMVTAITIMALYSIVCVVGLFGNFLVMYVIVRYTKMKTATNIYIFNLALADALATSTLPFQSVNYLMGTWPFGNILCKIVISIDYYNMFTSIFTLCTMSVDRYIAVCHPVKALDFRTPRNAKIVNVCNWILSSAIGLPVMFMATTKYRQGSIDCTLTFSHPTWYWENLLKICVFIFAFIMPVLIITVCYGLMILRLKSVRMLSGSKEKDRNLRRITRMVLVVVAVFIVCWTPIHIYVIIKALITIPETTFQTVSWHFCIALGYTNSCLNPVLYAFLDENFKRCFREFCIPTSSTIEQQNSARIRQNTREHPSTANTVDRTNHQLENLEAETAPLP

What was measured:
[1] = biological target: Mu-type opioid receptor (Mus musculus) (UniProt P42866); assay: Agonist activity at recombinant mouse mu opioid receptor expressed in CHO cell membrane assessed as [35]-GTPgammaS binding incubated for […] by scintillation counting method relative to DAMGO
[2] = biological target: Mu-type opioid receptor (Mus musculus) (UniProt P42866); assay: Agonist activity at mouse mu opioid receptor expressed in CHO cells cotransfected with Galphaqi5 assessed as intracellular calcium level preincubated for 60 mins in Fluo4AM solution followed by compound addition by Fluo4AM dye based assay; assay type: functional, cell-based
[3] = biological target: Mu-type opioid receptor (Mus musculus) (UniProt P42866); assay: Agonist activity at mouse mu opioid receptor expressed in CHO cells assessed as inhibition of forskolin-induced cAMP formation incubated for 8 min followed by forskolin stimulation by ELISA; assay type: functional, cell-based
How it was run: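 mMOR-CHO cells grown to confluency, pre-incubated 30 min at 37°C with 1 mM IBMX, 200 μM Ro 20-1724, bovine serum albumin and 20 mM HEPES (pH 7.2-7.5). Ligand then added with 10 μM forskolin for 8 min at 37°C. Media removed, cells rinsed with PBS, cAMP measured by ELISA. DMEM/F12 used as solvent throughout.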

Cl.O=C(N[C@H]1CC[C@@]2(O)[C@H]3Cc4ccc(O)c5c4[C@@]2(CCN3CC2CC2)[C@H]1O5)c1cccc2ccsc12
Emax [1]: 10.6% | Activity [2]: inactive | Emax [3]: inactive

Cl.O=C(N[C@@H]1CC[C@@]2(O)[C@H]3Cc4ccc(O)c5c4[C@@]2(CCN3CC2CC2)[C@H]1O5)c1cccc2ccsc12
Emax [1]: 13.5%
